Experimental data published in patent US4339378A, “N-Acylcarnosine aluminum salts” (Nippon Chemiphar Co., Ltd., priority 1979, dated 1982).

System: Wister strain rats
Details: P.O., observed seven days

With N-acetylcarnosine aluminum salt as the substance, how does the LD50 (female rats) read?
Its LD50 is > 10,000 mg/kg.

And the LD50 (male rats)?
Its LD50 is > 10,000 mg/kg.

Where two headings read alike, the source gives them in different places.
